Like-named read-outs stand apart in the source and are kept apart here.
Tested on: 4T1 breast tumor-bearing mice
Assay type: in vivo, BALB/c mice
Description: A suspension of 4T1 breast cancer cells was injected subcutaneously into the left shoulder back of 60 healthy female BALB/c mice to create solid tumor models. When the mean tumor volume reached approximately 190 mm^3, the mice were randomized into groups based on tumor volume, and were administered the respective drugs or drug solvents via oral gavage or intraperitoneal injection over 18 consecutive days. Longest and shortest diameters of tumors were measured every three days to calculate tumor volume, and mouse weights were recorded every three days. At the end of the experiment, tumors, spleens, and thymuses were harvested and weighed to calculate tumor, spleen, and thymus indices.
Based on previous experimental results, Ganoderma lucidum polysaccharide GLP-1 was administered at a low dose of 50 mg/kg and a high dose of 150 mg/kg as shown in Table 27.
Relative tumor growth inhibition rate (%)=(1−TRTV/CRTV)×100%. Where TRTV is the relative tumor volume in the experimental group, and CRTV is the relative tumor volume in the model control group. […]
Spleen and thymus organ coefficients: After the last dose, spleen, thymus, and tumor weights are measured, and organ coefficients are calculated. […]
Statistical analyses were performed using SPSS 17.0, with the significance level set at P≤0.05. Measurement data were expressed as mean±standard deviation (˜±s). […]

## N.N.[Cl][Pt][Cl] [Cisplatin, cisplatin]
4T1 breast tumor-bearing mice, cisplatin 4 mg/kg i.p.
  Mortality rate: 12.5%
18 days of dosing, cisplatin 4 mg/kg, GLP-1 low-dose 50 mg/kg
  Mortality rate: 12.5%
